{
  "source": "patent US11364260B2",
  "about": "“Methods and compositions for administration of iron” (American Regent, Inc., priority 2006, dated 2022)",
  "key": {"[1]": {"test": "Single dose toxicity (LD50, acute toxicity)"}, "[2]": {"system": "patients with iron deficiency anemia or renal anemia", "test": "Safety assessments in patients with iron deficiency anemia and renal anemia", "type": "in vivo, human", "details": "iron doses 100 to 1000 mg", "method": "Safety assessments were made in 73 patients with iron deficiency anemia (27 single-dose, 46 repeated-dose), and 166 patients with renal anemia (3 single-dose, 163 repeated-dose) who received VIT-45 at individual iron doses of 100 mg up to 1000 mg (cumulative doses of 100 to 2200 mg)."}},
  "data": [
    {"substance": "polynuclear iron (III)-hydroxide 4(R)-(poly-(1→4)-O-α-D-glucopyranosyl)-oxy-2(R),3(R),5(R),6-tetrahydroxy-hexanoate [VIT-45]", "values": [
      {"measurement": "safety factor relative to human dose (15 mg iron/kg b.w.)", "setting": "[1]", "value": "about 70 fold"},
      {"measurement": "safety profile versus currently available parenteral iron formulations", "setting": "[2]", "value": "equal to, or exceeding"}
    ]}
  ]
}
